Measured values reported in PMC7949049 (The Journal of Biological Chemistry, 2020).

Assay: Circular dichroism, helicity
Format: physicochemical
Conditions: CD 185-260 nm, 0.2 mg/ml protein in 10 mM phosphate pH 7.3, 150 mM NaF, 298 K; CDSSTR, reference set 3

| SMILES | Helicity (%) of RLIP76 RBDs [%] |
| --- | --- |
| CC[C@H](C)[C@H](NC(=O)CNC(=O)CNC(=O)[C@H](CCC(N)=O)NC(=O)[C@H](CC(C)C)NC(=O)[C@H](CC(=O)O)NC(=O)[C@H](CCCNC(=N)N)NC(=O)[C@H](C)NC(=O)[C@H](CC(C)C)NC(=O)[C@H](CO)NC(=O)[C@H](CC(N)=O)NC(=O)[C@H](C)NC(=O)[C@H](CC(C)C)NC(=O)[C@H](Cc1ccccc1)NC(=O)[C@H](CCC(=O)O)NC(=O)[C@H](CCC(N)=O)NC(=O)[C@H](CCCNC(=N)N)NC(=O)[C@H](CCCNC(=N)N)NC(=O)[C@@H](NC(=O)[C@H](CCC(=O)O)NC(=O)[C@H](CCC(=O)O)NC(=O)[C@H](CCCCN)NC(=O)[C@@H](NC(=O)CNC(=O)[C@H](C)NC(=O)[C@H](CCC(N)=O)NC(=O)[C@@H](NC(=O)[C@@H](N)CCC(=O)O)[C@@H](C)O)[C@@H](C)CC)[C@@H](C)CC)C(=O)N[C@@H](CCCCN)C(=O)N[C@@H](CC(=O)O)C(=O)N[C@@H](CC(C)C)C(=O)N[C@@H](CO)C(=O)N[C@@H](CCCCN)C(=O)N[C@@H](CCC(=O)O)C(=O)N[C@@H](Cc1c[nH]cn1)C(=O)N[C@@H](CCCNC(=N)N)C(=O)N[C@@H](CC(C)C)C(=O)N[C@@H](Cc1c[nH]c2ccccc12)C(=O)N[C@@H](CCC(=O)O)C(=O)N[C@H](C(=O)N[C@@H](CC(C)C)C(=O)N[C@@H](CCCNC(=N)N)C(=O)N[C@H](C(=O)N[C@@H](CC(C)C)C(=O)N[C@H](C(=O)N[C@@H](C)C(=O)N[C@@H](CC(C)C)C(=O)N[C@@H](CCCNC(=N)N)C(=O)N[C@@H](CCCNC(=N)N)C(=O)N[C@@H](CCCCN)C(=O)N[C@@H](CC(C)C)C(=O)N[C@@H](CCCNC(=N)N)C(=O)N[C@@H](CCC(=O)O)C(=O)N[C@@H](C)C(=O)O)[C@@H](C)O)[C@@H](C)CC)C(C)C [HLR L409A/H413A] | 88 |
| CC[C@H](C)[C@H](NC(=O)CNC(=O)CNC(=O)[C@H](CCC(N)=O)NC(=O)[C@H](CC(C)C)NC(=O)[C@H](CC(=O)O)NC(=O)[C@H](CCCNC(=N)N)NC(=O)[C@H](C)NC(=O)[C@H](CC(C)C)NC(=O)[C@H](CO)NC(=O)[C@H](CC(N)=O)NC(=O)[C@H](C)NC(=O)[C@H](CC(C)C)NC(=O)[C@H](Cc1ccccc1)NC(=O)[C@H](CCC(=O)O)NC(=O)[C@H](CCC(N)=O)NC(=O)[C@H](CCCNC(=N)N)NC(=O)[C@H](CCCNC(=N)N)NC(=O)[C@@H](NC(=O)[C@H](CCC(=O)O)NC(=O)[C@H](CCC(=O)O)NC(=O)[C@H](CCCCN)NC(=O)[C@@H](NC(=O)CNC(=O)[C@H](C)NC(=O)[C@H](CCC(N)=O)NC(=O)[C@@H](NC(=O)[C@@H](N)CCC(=O)O)[C@@H](C)O)[C@@H](C)CC)[C@@H](C)CC)C(=O)N[C@@H](CCCCN)C(=O)N[C@@H](CC(=O)O)C(=O)N[C@@H](CC(C)C)C(=O)N[C@@H](CO)C(=O)N[C@@H](CCCCN)C(=O)N[C@@H](CCC(=O)O)C(=O)N[C@@H](CCC(=O)O)C(=O)N[C@@H](CCCNC(=N)N)C(=O)N[C@@H](CC(C)C)C(=O)N[C@@H](Cc1c[nH]c2ccccc12)C(=O)N[C@@H](CCC(=O)O)C(=O)N[C@H](C(=O)N[C@@H](CCC(N)=O)C(=O)N[C@@H](CCCNC(=N)N)C(=O)N[C@H](C(=O)N[C@@H](CC(C)C)C(=O)N[C@H](C(=O)N[C@@H](C)C(=O)N[C@@H](CC(C)C)C(=O)N[C@@H](CCCCN)C(=O)N[C@@H](CCCNC(=N)N)C(=O)N[C@@H](CCCCN)C(=O)N[C@@H](CC(C)C)C(=O)N[C@@H](CCCNC(=N)N)C(=O)N[C@@H](CCC(=O)O)C(=O)N[C@@H](C)C(=O)O)[C@@H](C)O)[C@@H](C)CC)C(C)C [L409A/H413A] | 87 |
